This is a selection: effects in other tests are not listed, and their absence says nothing.
Tests used:
[1] = tested on: human right saphenous vein (RSV); test: Vascular ring physiology, isolated human right saphenous vein rings; conditions: NE-precontracted RSV; MA 1 mmol/L or SNP 100 μmol/L, 30-40 min
cGMP level in human RSV = test: cGMP ELISA assay in RSV segments

## sodium nitroprusside
[1]
  % Relaxation, RSV: 100 ± 0%
cGMP level in human RSV; NE-precontracted RSV, MA 1 mmol/L or SNP 100 μmol/L, 30-40 min, control 0.118 ± 0.028
  [cGMP], RSV: 0.322 ± 0.065 pmol/mg
cGMP level in human RSV; SNP 100 μmol/L, statistically significant vs control
  fold increase in cGMP levels in NE-precontracted RSV: 3 fold
